Target: T1, EphB2 ectodomain fused to human Fc, carboxy-terminal hexahistidine tag (human)
T1 chain: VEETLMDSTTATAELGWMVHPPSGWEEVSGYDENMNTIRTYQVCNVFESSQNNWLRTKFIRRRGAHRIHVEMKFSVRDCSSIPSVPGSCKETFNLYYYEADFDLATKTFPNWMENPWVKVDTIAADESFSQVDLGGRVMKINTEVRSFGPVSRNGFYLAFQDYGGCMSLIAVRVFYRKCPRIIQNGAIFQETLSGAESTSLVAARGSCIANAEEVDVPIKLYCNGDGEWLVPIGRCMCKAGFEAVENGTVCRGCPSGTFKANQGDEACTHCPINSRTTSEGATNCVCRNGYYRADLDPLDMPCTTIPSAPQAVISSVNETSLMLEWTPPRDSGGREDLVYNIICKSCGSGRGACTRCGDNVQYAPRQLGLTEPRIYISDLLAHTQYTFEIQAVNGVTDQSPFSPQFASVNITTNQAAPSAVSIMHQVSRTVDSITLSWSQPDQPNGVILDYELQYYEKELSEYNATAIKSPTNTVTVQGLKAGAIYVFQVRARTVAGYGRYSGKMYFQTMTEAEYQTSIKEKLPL
Assay: inhibition of ephrin-B2 AP binding to immobilized EphB2 ectodomain Fc; biotinylated peptide

B1: SNEW peptide, synthetic, biotinylated (peptide)
peptide: SNEWIQPRLPQHGSGS
modifications: C-terminal biotin: on the Lys side chain of a GSGSK linker, or N-biotinyl-ethylenediamine after GSGS (which one is not stated)
IC50: ~15 µM

Source: patent US20060177452A1 (BURNHAM INSTITUTE FOR MEDICAL RESEARCH, published 2006)
